# Measured values as given in ChEMBL document CHEMBL3352379, “Potent heterocyclic ligands for human complement c3a receptor” (J Med Chem, 2014).
# Molecular target: T1, C3a anaphylatoxin chemotactic receptor (Homo sapiens) (UniProt Q16581)
# T1 sequence (whole entry): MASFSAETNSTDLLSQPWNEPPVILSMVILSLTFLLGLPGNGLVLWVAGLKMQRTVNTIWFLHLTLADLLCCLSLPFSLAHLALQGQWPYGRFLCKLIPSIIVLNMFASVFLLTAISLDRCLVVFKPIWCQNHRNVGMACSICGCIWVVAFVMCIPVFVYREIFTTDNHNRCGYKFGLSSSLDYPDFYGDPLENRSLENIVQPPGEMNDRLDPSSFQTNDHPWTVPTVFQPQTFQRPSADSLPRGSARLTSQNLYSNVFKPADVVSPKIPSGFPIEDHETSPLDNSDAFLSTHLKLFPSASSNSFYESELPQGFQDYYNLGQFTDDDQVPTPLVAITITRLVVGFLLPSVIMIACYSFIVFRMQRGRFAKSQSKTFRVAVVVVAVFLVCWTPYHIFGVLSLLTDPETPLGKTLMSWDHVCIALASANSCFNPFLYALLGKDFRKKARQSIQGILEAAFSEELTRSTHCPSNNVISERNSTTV
# Test: Partial agonist activity against C3AR in HMDMs assessed as increase in intracellular calcium release by Fluo-3 AM dye based FLIPR assay relative to 1 uM C3a
# Format: functional, cell-based
smiles,measurement,value
N=C(N)NCCC[C@H](NC(=O)c1coc(C(c2ccccc2)c2ccccc2)n1)C(=O)O,Activity,< 50%
